PubChem BioAssay AID651719 (The Scripps Research Institute Molecular Screening Center, 2012)
The entries are a selection whose mix differs from that of the whole data set. Some salts and complexes are drawn in separate pieces, as the source files them; their charges need not balance. Active and inactive are the calls of the source.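 The calls were made as follows: active = inhibition above the screen-wide average plus 3 SD (cut at about 13% in these data); inactive = the rest.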

Sequences of proteins named here, by UniProt entry; tags and fusion partners are left off. Residues count along the entry.
UniProt O60755, 1-299 limits assumed: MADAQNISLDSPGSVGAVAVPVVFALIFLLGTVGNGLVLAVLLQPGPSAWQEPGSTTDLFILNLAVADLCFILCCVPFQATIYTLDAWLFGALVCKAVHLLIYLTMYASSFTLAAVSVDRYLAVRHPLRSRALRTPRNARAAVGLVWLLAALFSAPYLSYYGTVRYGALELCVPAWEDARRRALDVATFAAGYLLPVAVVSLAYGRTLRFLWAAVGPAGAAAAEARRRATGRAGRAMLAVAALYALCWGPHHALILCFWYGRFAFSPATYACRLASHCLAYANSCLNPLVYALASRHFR

molecular target: Galanin receptor type 3 (Homo sapiens) (UniProt O60755); assay: blockers of human galanin receptor 3 – cell-based, fluorescence readout, primary screen (AID 651719); conditions: HEK293 GalR3-CNG cAMP membrane potential fluorescence; at 3 µM; active compounds read high; galR3 body fused to GalR1 C-terminus;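 also: forskolin and galanin both at EC90 stimulate the cells; cAMP rise reported by CNG channel membrane potential dye signal; 0% = forskolin plus galanin with DMSO and 100% = forskolin alone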

Compound	inhibition
COc1ccccc1OP(C)(=O)Nc1ccc(Br)cc1 (configuration not stated)	inactive: 4.1%
COc1ccc(OP(C)(=O)Nc2ccccn2)cc1 (configuration not stated)	inactive: -1.27%
CN(C)CCOC(=O)C(O)(c1ccccc1)C1CCCC1 (configuration not stated)	inactive: -4.16%
O=[N+]([O-])c1cc([N+](=O)[O-])c(Nc2ccccn2)c([N+](=O)[O-])c1	inactive: -5.99%
Cc1c(NP(C)(=O)Oc2ccc(C(C)C)cc2)c(=O)n(-c2ccccc2)n1C (configuration not stated)	inactive: -6.8%
CP(=O)(Nc1ccccn1)Oc1ccccc1 (configuration not stated)	inactive: -4.16%
COc1ccccc1OP(C)(=O)Nc1ccc(C)cc1C (configuration not stated)	inactive: 3.9%
CCc1ccc(OP(C)(=O)O)cc1	inactive: 0.7%
O=C1C(O)=C([N+](=O)[O-])C(=O)C(O)=C1[N+](=O)[O-]	inactive: -3.47%
Cc1cc(C)cc(OP(C)(=O)Nc2cccc(C(F)(F)F)c2)c1 (configuration not stated)	inactive: -9.5%
COc1ccccc1OP(C)(=O)Nc1ccc(C)c(C)c1 (configuration not stated)	inactive: -0.86%
COc1ccc(OP(C)(=O)Nc2ccccc2Br)cc1 (configuration not stated)	inactive: 0.8%
CP(=O)(OCCOc1ccccc1)OCCOc1ccccc1	inactive: -6.33%
CCCCCCCCCCCCCCCC1C[N+](C)(C)CCOP(C)(=O)O1 (configuration not stated)	inactive: -5.58%
CP(=O)(Nc1ccc(Cl)cc1Cl)Oc1ccccc1 (configuration not stated)	inactive: -0.77%
CCN(CC)CCCNc1ccccc1[N+](=O)[O-].O=[N+]([O-])c1cc([N+](=O)[O-])c(O)c([N+](=O)[O-])c1	inactive: -6.81%
CCOC(=O)c1ccc(NP(C)(=O)Oc2ccc(F)cc2)cc1 (configuration not stated)	inactive: 1.92%
COc1ccc(OP(C)(=O)Nc2ccc(SC(F)(F)F)cc2)cc1 (configuration not stated)	inactive: -6.61%
Cc1c([N+](=O)[O-])cc([N+](=O)[O-])c(Br)c1[N+](=O)[O-]	inactive: -6.19%
CCN(CC)CCCOC(=O)C(O)(c1ccccc1)C1CCCCC1 (configuration not stated)	inactive: 3.84%
CP(=O)(Nc1ccccc1)Oc1ccc(F)cc1 (configuration not stated)	inactive: 5.94%

Compound	inhibition
CCCCCOc1ccc(NP(C)(=O)Oc2ccc(Cl)cc2Cl)cc1 (configuration not stated)	inactive: -5.65%
O=[N+]([O-])c1cc([N+](=O)[O-])c(OC2CCCCC2O)c([N+](=O)[O-])c1 (configuration not stated)	inactive: -9.55%
O=[N+]([O-])c1cc([N+](=O)[O-])c(Nc2ccc(Cl)cc2)c([N+](=O)[O-])c1	active: 57.1%
CP(=O)(Nc1ccccc1F)Oc1ccccc1 (configuration not stated)	inactive: 1.7%
CC(C)c1ccc(OP(C)(=O)Nc2ccc(SC(F)(F)F)cc2)cc1 (configuration not stated)	inactive: -5.45%
O=C(OC1CN2CCC1CC2)c1ccc([N+](=O)[O-])cc1 (configuration not stated)	inactive: -0.24%
O=C(OCCN1CCN(CCOCc2ccccc2)CC1)C(O)(c1ccccc1)c1ccccc1	inactive: -5.87%
COc1ccc2c(c1O)-c1c(O)c(OC)cc3c1[C@H](C2)[N+](C)(C)CC3.O=[N+]([O-])c1cc([N+](=O)[O-])c([O-])c([N+](=O)[O-])c1[O-]	inactive: -2.96%
CP(=O)(Nc1ccc(SC(F)(F)F)cc1)Oc1ccc(F)cc1 (configuration not stated)	inactive: -7.82%
CCOP(C)(=S)SCC(=O)NC(C)(CC)C(=O)O (configuration not stated)	inactive: -5.22%
CCOP(=O)(CC)OCC	inactive: 0.7%
CP(=O)(Nc1ccc2c(c1)OCCO2)Oc1ccccc1 (configuration not stated)	inactive: 0.72%
Cc1ccccc1NP(C)(=O)Nc1ccccc1C	inactive: -1.2%
O=[N+]([O-])c1cc([N+](=O)[O-])c(C(F)(F)F)c([N+](=O)[O-])c1O	inactive: -2%
COc1ccc(OP(C)(=O)Nc2cccc(Br)c2)cc1 (configuration not stated)	inactive: -3%
CN(C)CCOC(=O)C(O)(c1ccccc1)C1CCCCC1 (configuration not stated)	inactive: -5.44%
COc1ccc(NP(C)(=O)Oc2ccccc2OC)cc1 (configuration not stated)	inactive: 3.04%
O=[N+]([O-])c1ccc(OP2(=O)COCCO2)cc1 (configuration not stated)	inactive: -9.34%
O=[N+]([O-])c1cc([N+](=O)[O-])c(NCC2CCS(=O)(=O)C2)c([N+](=O)[O-])c1 (configuration not stated)	inactive: -5.84%
Cc1cc(-c2cccc3ccccc23)c(C)cn1.O=[N+]([O-])c1cc([N+](=O)[O-])c(O)c([N+](=O)[O-])c1	inactive: -6.43%
Cc1c(C(c2ccc3c(c2)OCO3)c2c(C)n(C)n(-c3ccccc3)c2=O)c(=O)n(-c2ccccc2)n1C.O=[N+]([O-])c1cc([N+](=O)[O-])c(O)c([N+](=O)[O-])c1	inactive: -4.33%
